Experimental data taken from the OPERA property sets (Mansouri et al. 2018).
In brackets after ≈: the same amount, converted by molar mass.

`CS(=O)(=O)N(SC(Cl)(Cl)C(F)(Cl)Cl)c1ccccc1` gave a solubility of 7.1 µM (≈ 2.75 µg/mL).
